Like-named read-outs stand apart in the source and are kept apart here.
Tests used:
[1] = for Concentration in Mouse Plasma: Group 2, 200 mg/kg IV
[2] = test system: A549, HL-60, Raji B, Panc-1, and PC3 cancer cell lines; conditions: 300 μM, 4-5 h period, 5 cell lines

Row | Substance | Concentration in Mouse Plasma ([1]; 3.00 hrs, Animal 3) | Concentration in Mouse Plasma ([1]; 8.00 hrs, Animal 3) | Concentration in Mouse Plasma ([1]; 24.0 hrs, Animal 1) | Concentration in Mouse Plasma ([1]; 24.0 hrs, Animal 2) | Concentration in Mouse Plasma ([1]; 24.0 hrs, Animal 3) | optimal tolerated dose ([1]; mice, preliminary evaluation) | time out to which CMax was maintained ([1]; mice, preliminary evaluation, CMax very rapidly achieved) | reduction in cell viability [2]
1 | polyethylene glycol octadecyl ether [C18-Ether-PEG-1000] | BQLa (Below Quantitation Limit (<10,000 ng/mL)) | BQLa (Below Quantitation Limit (<10,000 ng/mL)) | BQLa (Below Quantitation Limit (<10,000 ng/mL)) | BQLa (Below Quantitation Limit (<10,000 ng/mL)) | BQLa (Below Quantitation Limit (<10,000 ng/mL)) | 200 milligrams per kilo | approximately 4 hours | 
2 | polyethylene glycol octadecyl ether [C18-Ether-PEG-5000] |  |  |  |  |  |  |  | up to 50%
